PMC3929448

Target: human insulin receptor, B isoform, expressed on CHO cells (CHO-hINSR-B) (human) (UniProt P06213)
Experiment: flow cytometry on cells

EC50: 125 nM
Substance: biotinylated human insulin (ligand)
